Results: PubChem BioAssay AID1135 (Sanford-Burnham Center for Chemical Genomics, 2008)
The list shows a part of the results, in another mix than the full data. Some of these compounds have results that are not shown, active ones among them. Active and inactive are the calls of the source.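 Rule for the calls: active = over 50% inhibition of tissue-nonspecific alkaline phosphatase at 20 µM in the single-dose screen; inactive = the rest.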

Amino acid sequences for entries named in this document (tags omitted).
UniProt P05186, whole entry: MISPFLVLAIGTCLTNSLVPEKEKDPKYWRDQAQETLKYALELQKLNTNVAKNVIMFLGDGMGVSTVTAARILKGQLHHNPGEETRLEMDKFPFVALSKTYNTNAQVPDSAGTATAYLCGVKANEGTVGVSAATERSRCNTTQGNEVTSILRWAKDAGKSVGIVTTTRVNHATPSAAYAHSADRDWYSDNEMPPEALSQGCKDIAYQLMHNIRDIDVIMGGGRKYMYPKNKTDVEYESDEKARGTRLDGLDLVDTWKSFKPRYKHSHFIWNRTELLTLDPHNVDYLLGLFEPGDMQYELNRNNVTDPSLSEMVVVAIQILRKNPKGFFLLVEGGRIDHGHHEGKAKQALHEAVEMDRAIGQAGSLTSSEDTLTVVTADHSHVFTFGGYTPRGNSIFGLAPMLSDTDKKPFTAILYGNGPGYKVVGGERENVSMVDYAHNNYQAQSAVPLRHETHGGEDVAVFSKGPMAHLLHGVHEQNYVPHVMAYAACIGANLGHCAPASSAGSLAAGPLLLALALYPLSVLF

These compounds were tested against Alkaline phosphatase, tissue-nonspecific isozyme (Homo sapiens) (UniProt P05186) (assay: human TNAP enzyme inhibitors, primary screen, biochemical, luminescent, high phosphate acceptor level, uHTS (AID 1135;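 note: plate controls were DMSO wells for no effect and EDTA-quenched wells as full inhibition for full effect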)). Conditions: purified TNAP, CDP-star luminescence, 1 M DEA; at 20 µM; stronger effect = higher value.
In the case of `C=CCN1CCN(CCOC(=O)C(O)(c2ccccc2)c2ccccc2)CC1`, the inhibition was inactive: -5.7%. For `CCN1CCCC(OC(=O)C2(O)c3ccccc3C=Cc3ccccc32)C1` (centres undefined), the inhibition was inactive: -5.4%. `Cc1ccccc1C(=O)NCC1(N2CCCCC2)CCCCC1` was tested, and the inhibition was inactive: -7.2%. With `CN(C)C1CCCC1OC(=O)C(O)(c1ccccc1)c1ccccc1` (centres undefined) the inhibition was inactive: -5%. `CC(C)N1C(=O)CC2(CCN(CCOC(=O)C(O)(c3ccccc3)c3ccccc3)CC2)C1=O` was tested, and the inhibition was inactive: 1%. With `O=C(NCC1(N2CCCCC2)CCCCC1)c1cc([N+](=O)[O-])ccc1Cl` the inhibition was inactive: -1.3%. For `CN(C)c1cccc(C(=O)NCC2(N(C)C)CCCCC2)c1`, the inhibition was inactive: -10.6%. With `O=C(OC1CN2CCC1CC2)C(CO)(c1ccccc1)c1ccccc1` (centres undefined) the inhibition was inactive: -1.2%. `COc1cccc(C(=O)NCC2(N3CCCCC3)CCCCC2)c1` was tested, and the inhibition was inactive: -2.9%.
